Measurements as given in patent US20100209959A1, “TUMOUR-CELL-FIXING CELLS” (UNIVERSITE PIERRE ET MARIE CURIE-PARIS VI, priority 2007, published 2010).

Test system: MDR1 protein
Assay: Transfer of MDR1 protein from hospicells to OVCAR3 cells (flow cytometry)
Assay type: cell-based
Conditions: in the presence of the protein translation inhibitor
Description: In addition, the expression of the MDR1 protein by OVCAR3 cells, cultivated in the presence or in the absence of hospicells, was determined by flow cytometry.
The results obtained show the presence of the MDR1 protein by the OVCAR3 cells. Consequently, the transfer of MDR proteins between the hospicells and the tumour cells is possible.

C[C@@H]1C[C@@H]([C@H](O)CC2CC(=O)NC(=O)C2)C(=O)[C@@H](C)C1 [cycloheximidine A]
transfer of MDR proteins between hospicells and tumour cells: also takes place
